Experimental data reported in patent EP4843994A1, “NOVEL PEPTIDE HAVING MUSCLE FORMATION-PROMOTING ACTIVITY, ANTI-OBESITY ACTIVITY AND ANTI-DIABETIC ACTIVITY AND USES THEREOF” (dated 2026).

System: 3T3-L1 cells
Assay: Expression of adipogenesis and lipolysis related genes in insulin resistance-induced adipocytes (RT-PCR)
Details: 3T3-L1 adipocytes, 350 µM oleic acid (insulin resistance environment), peptide 5 µM, 50 µM, 48 hours
Experimental: 3T3-L1 cells (preadipocytes, American Type Culture Collection) were cultured in DMEM medium containing 2% BCS (Bovine Calf Serum) (Welgene, Korea). To differentiate 3T3-L1 cells into adipocytes, cells were seeded into 12-well culture plates at a concentration of 1 x 10^5 cells/well, and when the cells became confluent (Day=2), the medium was replaced once more and cultured for an additional 48 hours. After 48 hours (Day=0), the culture medium was replaced with DMEM medium containing 10% FBS, 1% P/S, 1 µg/ml insulin (Sigma, USA), 0.5 mM isobutylmethylxanthine (IBMX) (Sigma, USA), and 1 µM Dexamethasone (Sigma, USA), and cultured. After 2 days (Day=2), the medium was replaced with DMEM medium containing 10% FBS, 1% P/S, and 1 µg/ml insulin, and cultured. After 3 days (Day=5), the medium was replaced with one containing only 10% FBS and 1% P/S, and an insulin resistance environment was induced by treating with 350 µM oleic acid (Sigma, St. Louis, MO, USA) for 24 hours. After 24 hours of induction, the DMEM medium (10% FBS, 1% BSA) supplemented with 350 µM oleic acid (Sigma, St. Louis, MO, USA) and peptides (5 µM, 50 µM) was replaced, and the cells were cultured for 48 hours. After culture, the cells were harvested, and RNA was extracted using Trizol (Thermo Fisher Scientific, USA). The extracted RNA was used to synthesize DNA complementary to the RNA using TOPScript™ RT DryMIX (enzynomics, Korea), and then polymerase chain reaction (PCR) was performed on genes of markers related to adipogenesis and lipolysis using TOPsimple™ DryMIX-nTaq (enzynomics, Korea). Subsequently, the reaction products were run on a 1.5% agarose gel to compare the mRNA expression levels of the markers for each sample. The primer sequences for the genes used in the PCR are listed in Table 9 below, and the GAPDH gene was used as a control group.
Through the above experiment, after inducing an insulin resistance environment in 3T3-L1 adipocytes, the inhibitory effect on adipogenesis or the promotion effect of lipolysis by peptide treatment was confirmed by measuring the expression levels of related factors. […] Additionally, in 3T3-L1 adipocytes, treatment with oleic acid decreased the expression levels of the PLIN, HSL, and ATGL genes, which are factors related to lipolysis; however, when the peptide was added, the decreased expression levels of the PLIN, HSL, and ATGL genes increased again (FIGS. 21A and 21B).

With `C[C@@H](O)[C@H](NC(=O)CNC(=O)[C@@H](N)Cc1c[nH]cn1)C(=O)N[C@@H](Cc1ccc(O)cc1)C(=O)O` the “expression level of the ATGL gene” value was “increased again”, the “expression level of the FAS gene” value was “decreased again” and the “expression level of the HSL gene” value was “increased again”. For the same compound, the “expression level of the PLIN gene” value was “increased again”.
